## Antibody variant affinities, Ab-14 light chain, assay B

Data: MIT Lincoln Laboratory AlphaSeq set, Li et al. 2023, doi:10.1038/s41467-023-39022-2, as distributed in FLAb.

Target: peptide PDVDLGDISGINAS, taken from heptad repeat 2 (HR2) of SARS-CoV-2 spike.

Each scFv is VH, three GGGGS repeats, VL, as in the parent Ab-14, and differs from it in the CDRs of the light chain only.
VH: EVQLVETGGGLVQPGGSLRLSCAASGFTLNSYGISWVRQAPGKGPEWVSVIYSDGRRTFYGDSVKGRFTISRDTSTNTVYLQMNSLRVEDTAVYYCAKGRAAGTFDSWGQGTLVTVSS
VL: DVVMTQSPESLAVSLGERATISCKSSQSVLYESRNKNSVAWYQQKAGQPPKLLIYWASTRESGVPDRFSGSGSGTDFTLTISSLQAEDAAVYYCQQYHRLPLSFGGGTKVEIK

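The parent was found by panning a naive human phage display library on the peptide. Designed CDR sequences, proposed from the first random library and measured here. Group labels follow the data file (En: ensemble of fine-tuned language models; GP: Gaussian process model; HC: hill climbing; Gen: genetic algorithm; Gibbs: Gibbs sampling; a sequence that several methods proposed may carry one label only). AlphaSeq pools MATa yeast showing the antibodies with MATalpha yeast showing the peptide. After mating in shaken culture at 30 °C for 16 h, diploids were selected and their barcode pairs sequenced. Read counts were normalised to the haploid input and turned into Kd by a linear fit to BCL2-family pairs of known affinity, for each replicate. There are six technical replicates.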

Each variant is given by its three light chain CDRs, as the data file delimits them; those of the parent are KSSQSVLYESRNKNSVA, WASTRES, QQYHRLPLS.
Variants here have more than six changes.
Values are log10 of the apparent Kd in nM; lower means stronger binding.
Averages over replicates are reported, and they cover detected replicates only.
"nd" marks a missing value. The strain was present, yet no cells mated with the target were sequenced in any replicate, which points to weak or no binding.
The range of this assay differs from that of the first round, and the authors advise against merging the two.
As a blank, each scFv also met three strains without target: over all light chain designs, 4% of these pairings were detected, typically at 2.64 and seldom below 1.59.
The authors' rule: three or more of the six replicates give a measured affinity, fewer mean a poor binder.
Of ten entries with the parent sequence, four were seen in most replicates (averages 0.34 to 2.37), three in one and three in none, so single entries are noisy.

Variant MISQVMNTLTREGNNVA | DLQEREK | QQYFRLPLS [En_Gen] gave 2.19 (1 of 6 replicates).
Variant KISMSVTFESYNKNSVA | ENSTRES | QSYHRLPLS [En_HC] gave 2.65 (4 of 6 replicates).
Variant VANLPFNEVGPDKQNVA | NAEIRED | QQYFRLPIL [En_Gibbs] gave 0.45 (6 of 6 replicates).
Variant KFMGSHLYESRMENSVA | NASQRES | QQYHRLPLS [GP_Gibbs] gave 0.47 (6 of 6 replicates).
Variant QLGHYKHENMAKWQNIA | DMTIREK | QQYAHLPLA [En_Gibbs] gave 1.05 (6 of 6 replicates).
Variant IVSQLMLWGMHATNSIA | EASTRLN | QQYERLPLF [En_Gen] gave 2.43 (2 of 6 replicates).
Variant KFSQMVNSMSVSHSAVA | EMSTRED | QQYNRLPLS [En_Gen] gave 0.19 (6 of 6 replicates).
Variant KIDENTFHGANRQNNIA | EARTVGA | QQYFRLPII [En_Gibbs] gave 0.49 (4 of 6 replicates).
Variant QLYAVQDMTSKNSNSVA | EQSTREN | QQYHRLPLS [En_HC] gave 0.75 (6 of 6 replicates).
Variant KQQQSEPGESRNMNSVA | HASQRES | QQYHRLPLS [GP_Gibbs] gave 0.28 (6 of 6 replicates).
Variant NLNVSEDQWPSSKNAIA | QTTCRVL | QQYMHLPLS [En_Gibbs] gave 0.55 (6 of 6 replicates).
Variant TISDLMHSETRNVNNVA | DLVKREK | QQYHRLPLS [En_HC] gave -0.42 (6 of 6 replicates).
Variant KLSVMSSYLSVNKNSVA | EMSTREN | QQYDRLPLS [En_HC] gave 1.16 (6 of 6 replicates).
Variant MMSQVQGMGQRHINNVA | QTSTREE | QQYDRLPLI [En_Gen] gave 0.32 (6 of 6 replicates).
Variant KLYSAKQGDIAQNQNVA | AADVLTH | QQYNKLPLS [En_Gibbs] gave 0.34 (6 of 6 replicates).
Variant KLYVSTMLESHQKNSIA | DLSTRGN | QQYHRLPLS [En_HC] gave 0.29 (6 of 6 replicates).
Variant TISQSAQQESHNKNSVA | DLNVRGG | QQYDRLPLS [En_HC] gave 0.46 (6 of 6 replicates).
Variant QIQMWEITLMENINSIA | NSEVIVQ | QSYFRLPLS [En_Gibbs] gave 1.53 (2 of 6 replicates).
Variant RMNKHMSGATEAKNSMA | GVEHRAN | QQYHRLPLS [En_Gibbs] gave 0.73 (6 of 6 replicates).
Variant TLMQVGGYELNAHNSIA | DLRTREN | QQYHRLPLS [En_HC] gave 1.10 (5 of 6 replicates).
Variant KLGQATAMTSRMKNNVA | DLNERER | QQYHRLPLS [En_HC] gave -0.04 (6 of 6 replicates).
Variant SMAYFQGGYNQQEKAIA | EAATRTQ | QQYFRLPLT [En_Gibbs] gave nd (0 of 6 replicates).
Variant QLTQVQQEDTIGEYNVA | HAEVSGR | QQYSQLPLI [En_Gibbs] gave nd (0 of 6 replicates).
Variant TIFQERSYLDGDERNIA | DARTRND | QQYNRLPLV [En_Gibbs] gave 0.59 (6 of 6 replicates).
Variant KLSATYRYESMNKNSIA | EMTTRES | QCYHRLPLS [En_HC] gave -0.02 (6 of 6 replicates).
Variant KITTSLYRWGSDKGAVA | EENIRVR | QQYFRLPFS [En_Gibbs] gave nd (0 of 6 replicates).
Variant TISQMTSWMSNKKNNVA | EVTTREA | QQYDRLPLT [En_Gen] gave 0.97 (6 of 6 replicates).
Variant HLGNEGDNQGNAKKSVA | DQSTVQL | QHYWRLPLT [En_Gibbs] gave 1.52 (6 of 6 replicates).
Variant TIDDEMPSHGLKWNSIA | GVATVLQ | QQYHRLPLS [En_Gibbs] gave 1.18 (6 of 6 replicates).
Variant FLSQSWDYESRPKNSVA | NASTRMS | QQYHRLPLS [GP_Gibbs] gave -0.14 (6 of 6 replicates).
Variant KYQESEPYESRNKNSVA | NASTRET | QQYHRLPLS [GP_Gibbs] gave 0.41 (6 of 6 replicates).
Variant TISQMTSLFSQSINNVA | EVSCREN | QQYDRLPLS [En_Gen] gave 1.72 (4 of 6 replicates).
Variant HMDLAVAGLTRDMNSIA | NTSARCA | QQYYRFPLI [En_Gibbs] gave 1.37 (6 of 6 replicates).
Variant SLAFTLHFNQSGGSNVA | EVQMREQ | QQYFRLPLG [En_Gibbs] gave 3.02 (3 of 6 replicates).
Variant QIDDEEPSEGLKWNSIA | GVATRLQ | QQYARLPLI [En_Gibbs] gave 0.73 (6 of 6 replicates).
Variant QIYQAMHTLMQATNNVA | DVTNRNN | QQYHRLPLS [En_Gen] gave 0.47 (6 of 6 replicates).
Variant KMSQSWLGQSWNKNSVA | NASQRES | QQYHRLPLS [GP_Gibbs] gave 0.49 (6 of 6 replicates).
Variant MMSQVTGMGQRQRNNVA | QTSTREE | QQYDRLPLI [En_Gen] gave 0.93 (6 of 6 replicates).
Variant KVSTSQEYEDRNKNSVA | HASTREE | QQYHRLPLS [GP_Gibbs] gave -0.26 (6 of 6 replicates).
Variant MMSQVQGQGTRHRNNVA | QTETREP | QQYDRLPLV [En_Gen] gave 1.19 (6 of 6 replicates).
Variant NIDQQRSYQDGRERAIA | DASIRQD | QYYNRLPLV [En_Gibbs] gave 1.22 (6 of 6 replicates).
Variant RVTILSDPYLENRNAIA | QTSLRAH | QQYQMLPLT [En_Gibbs] gave 0.53 (6 of 6 replicates).
Variant VFQDQWDGHTDTHNSVA | NVDEKME | QQYYRLPLL [En_Gibbs] gave -0.11 (6 of 6 replicates).
Variant KVEEEGDVFARNDNSVA | EMSMVLD | QQYHRLPLA [En_Gibbs] gave 1.59 (6 of 6 replicates).
Variant KVDMSQLYESRNKNSVA | NASLRCS | QQYHRLPLS [GP_Gibbs] gave 0.13 (6 of 6 replicates).
Variant TIGQSVHETSRIKNSVA | HASMRED | QQYDRLPLS [En_HC] gave 0.40 (6 of 6 replicates).
Variant KLMTSDLYESRMKNAVA | DASTRMS | QQYHRLPLS [GP_Gibbs] gave -0.10 (6 of 6 replicates).
Variant KISQMARVGQTHGNSIA | EEATRAK | QQYHRLPLS [En_Gen] gave 0.70 (6 of 6 replicates).
Variant KLSMITGHLSTAKNNVA | EMVTREE | QQYNRLPLA [En_Gen] gave 1.52 (6 of 6 replicates).
Variant KIGHGLTTEMRNRNSVA | QTETRVT | QHYHRLPLS [En_HC] gave 3.02 (3 of 6 replicates).